Type in all cases: biochemical
The target in experiment [1] is PI3K p110α/p85α (human) (Homo sapiens (Human), UniProt P42336). Nature of the experiment: PI3K p110α/p85α (human), non-radioactive assay (HTRF). The settings on record: ATM versus PI3Kalpha. The method, then: PI3K p110α/p85α (Human), Non-Radioactive Assay
(§1) PI3K p110α/p85α (human) was incubated in an assay buffer comprising 10 μM phosphatidylinositol 4,5-bisphosphate and MgATP (concentration as necessary). The reaction was initiated by addition of MgATP solution. After incubation at room temperature for 40 minutes, the reaction was stopped by addition of a solution consisting of EDTA and biotinylated phosphatidylinositol 3,4,5-trisphosphate. Finally, the detection buffer, consisting of a europium-labelled anti-GST monoclonal antibody, a GST-labelled GRP1 PH domain and streptavidin allophycocyanin, was added. The plate was read out via homogeneous time-resolved fluorescence (HTRF) and the corresponding signals were evaluated via the formula HTRF=10000×(Em665 nm/Em620 nm).
On the technique in general: In TR-FRET formats the signal depends on donor and acceptor labels being close together.

The target in experiment [2] is PI3K p110δ/p85α (human) (Homo sapiens (Human), UniProt O00329). The experiment in a line: PI3K p110δ/p85α (human), non-radioactive assay (HTRF). The settings on record: ATM versus PI3Kdelta. As to the method:
PI3K p110δ/p85α (Human), Non-Radioactive Assay
as §1, with “p110δ/p85α” for “p110α/p85α”, “After an” for “After”, “incubation time of 30 min” for “incubation”, “temperature,” for “temperature for 40 minutes,”

Experiment [3] addresses PI3K (p120γ) (human) (Homo sapiens (Human), UniProt P48736). Nature of the experiment: PI3K (p120γ) (human), non-radioactive assay (HTRF). The conditions noted are these: ATM versus PI3Kgamma. The method, then: PI3K (p120γ) (Human), Non-Radioactive Assay
as §1, with “(p120γ)” for “p110α/p85α”, “After an” for “After”, “incubation time of 30 min” for “incubation”, “temperature,” for “temperature for 40 minutes,”, “nm). • MgATP=magnesium 5′-O-[hydroxy({[(hydroxyphosphinato)oxy]phosphinato}oxy)phosphoryl]adenosine • MgCl2=magnesium dichloride • EGTA=ethylene glycol bis(aminoethyl ether) N,N,N′,N′-tetraacetic acid • Tween 20=polysorbate 20 Medicament/Pharmaceutical Composition” for “nm).”

Experiment [4] addresses mTOR (human) (Homo sapiens (Human), UniProt P42345). The experiment in a line: mTOR (human) radiometric kinase assay. The settings on record: ATM versus mTOR. The method, then: Furthermore, the effect, in particular inhibition, of other kinases and thus the selectivity of the compounds according to the invention can be determined with the aid of the following assay:
mTOR (human) was incubated with 50 mM HEPES pH 7.5, 1 mM EGTA, 0.01% Tween 20, 2 mg/ml of the substrate, 3 mM MnCl2 and [γ-^33P-ATP] (specific activity approximately 500 cpm/pmol, concentration as necessary). The reaction was initiated by addition of MgATP solution. After incubation at room temperature for 40 minutes, the reaction was stopped by addition of 3% phosphoric acid. 10 μl of the reaction solution were then transferred dropwise onto a P30 filtermat and washed three times for 5 min in 75 mM phosphoric acid and once in methanol, dried and evaluated by means of liquid scintillation counting.

In experiment [5] the target is PI3K p110β/p85α (human) (Homo sapiens (Human), UniProt P42338). The experiment in a line: PI3K p110β/p85α (human), non-radioactive assay (HTRF). The settings on record: ATM versus PI3Kbeta. As to the method: PI3K p110β/p85α (Human), Non-Radioactive Assay
as §1, with “p110β/p85α” for “p110α/p85α”, “After an” for “After”, “incubation time of 30 min” for “incubation”, “temperature,” for “temperature for 40 minutes,”

Structures are written as SMILES.

For `[2H]C([2H])([2H])Oc1cnc(-n2c(=O)n(C)c3cnc4cc(OC)c(-c5cnn(C)c5)cc4c32)c(F)c1` [Example 155, 1-[3-Fluoro-5-(trideuterio-methoxy)-2-pyridyl]-7-methoxy-3-methyl-8-(1-methylpyrazol-4-yl) imidazo-[4,5-c]quinolin-2-one], the “ratio of IC50 (ATM) and IC50 (PI3Kalpha), selectivity with respect to PI3Kalpha” value (from here on “ratio … selectivity with respect to PI3Kalpha”) in experiment [1] is “at least 2000 times”. The “ratio of IC50 (ATM) and IC50 (PI3Kdelta), selectivity with respect to PI3Kdelta” value (from here on “ratio … selectivity with respect to PI3Kdelta”) in experiment [2] is recorded as “at least 2000 times”. The “ratio of IC50 (ATM) and IC50 (PI3Kgamma), selectivity with respect to PI3Kgamma” value (from here on “ratio … selectivity with respect to PI3Kgamma”) in experiment [3] was “at least 2000 times”.
`COc1cc2ncc3c(c2cc1-c1cn(C)nc1C)n(-c1c(F)cncc1OCF)c(=O)n3C` [Example 149, 8-(1,3-Dimethyl-1H-pyrazol-4-yl)-1-(3-fluoro-5-fluoro-methoxypyridin-4-yl)-7-methoxy-3-methyl-1,3-dihydroimidazo[4,5-c]-quinolin-2-one]: the “ratio IC50 (ATM):IC50 (mTOR), selectivity with respect to mTOR” value in experiment [4] was “at least 2000 times”. For the same molecule, the “ratio IC50 (ATM):IC50 (PI3Kbeta), selectivity with respect to PI3Kbeta” value in experiment [5] is recorded as “at least 2000 times”. Also, the “ratio … selectivity with respect to PI3Kgamma” value in experiment [3] is recorded as “at least 2000 times”.
Regarding `COc1cc2ncc3c(c2cc1-c1cnn(CF)c1)n(-c1c(F)cncc1OC)c(=O)n3C` [Example 140, 1-(3-Fluoro-5-methoxy-pyridin-4-yl)-8-(1-fluoro-methyl-1H-pyrazol-4-yl)-7-methoxy-3-methyl-1,3-dihydroimidazo[4,5-c]-quinolin-2-one], the “ratio IC50 (ATM):IC50 (mTOR), selectivity with respect to mTOR” value in experiment [4] was “at least 2000 times”. Moreover, the “ratio IC50 (ATM):IC50 (PI3Kbeta), selectivity with respect to PI3Kbeta” value in experiment [5] is reported as “at least 2000 times”.
Take `COc1cc2ncc3c(c2cc1-c1cnn(C)c1)n(-c1ncc(OCF)cc1F)c(=O)n3C` [Example 110, 1-(3-Fluoro-5-fluoro-methoxypyridin-2-yl)-7-methoxy-3-methyl-8-(1-methyl-1H-pyrazol-4-yl)-1,3-dihydroimidazo[4,5-c]-quinolin-2-one]: in experiment [1], the “ratio … selectivity with respect to PI3Kalpha” value is reported as “at least 2000 times”. Besides, the “ratio … selectivity with respect to PI3Kdelta” value in experiment [2] is given as “at least 2000 times”. Moreover, the “ratio … selectivity with respect to PI3Kgamma” value in experiment [3] was “at least 2000 times”.
On to `COc1cnc(-n2c(=O)n(C)c3cnc4cc(OC)c(-c5cnn(C)c5)cc4c32)c(F)c1` [Example 105, 1-(3-Fluoro-5-methoxy-pyridin-2-yl)-7-methoxy-3-methyl-8-(1-methyl-1H-pyrazol-4-yl)-1,3-dihydro-imidazo[4,5-c]quinolin-2-one], for which the “ratio … selectivity with respect to PI3Kalpha” value in experiment [1] is on record as “at least 2000 times”. Further, the “ratio … selectivity with respect to PI3Kdelta” value in experiment [2] was “at least 2000 times”. In addition, in experiment [3], the “ratio … selectivity with respect to PI3Kgamma” value was “at least 2000 times”.

The values above are taken from patent US11608338B2, “Imidazolonylquinolines and the use thereof as ATM kinase inhibitors” (priority 2015, dated 2023).
